Measurements: PMC7827085 (Pharmaceutics, 2021)

Sequences of proteins named here, by UniProt entry; tags and fusion partners are left off. A change or cut given only in a name is not applied to a line headed by its entry.
UniProt P08183, whole entry: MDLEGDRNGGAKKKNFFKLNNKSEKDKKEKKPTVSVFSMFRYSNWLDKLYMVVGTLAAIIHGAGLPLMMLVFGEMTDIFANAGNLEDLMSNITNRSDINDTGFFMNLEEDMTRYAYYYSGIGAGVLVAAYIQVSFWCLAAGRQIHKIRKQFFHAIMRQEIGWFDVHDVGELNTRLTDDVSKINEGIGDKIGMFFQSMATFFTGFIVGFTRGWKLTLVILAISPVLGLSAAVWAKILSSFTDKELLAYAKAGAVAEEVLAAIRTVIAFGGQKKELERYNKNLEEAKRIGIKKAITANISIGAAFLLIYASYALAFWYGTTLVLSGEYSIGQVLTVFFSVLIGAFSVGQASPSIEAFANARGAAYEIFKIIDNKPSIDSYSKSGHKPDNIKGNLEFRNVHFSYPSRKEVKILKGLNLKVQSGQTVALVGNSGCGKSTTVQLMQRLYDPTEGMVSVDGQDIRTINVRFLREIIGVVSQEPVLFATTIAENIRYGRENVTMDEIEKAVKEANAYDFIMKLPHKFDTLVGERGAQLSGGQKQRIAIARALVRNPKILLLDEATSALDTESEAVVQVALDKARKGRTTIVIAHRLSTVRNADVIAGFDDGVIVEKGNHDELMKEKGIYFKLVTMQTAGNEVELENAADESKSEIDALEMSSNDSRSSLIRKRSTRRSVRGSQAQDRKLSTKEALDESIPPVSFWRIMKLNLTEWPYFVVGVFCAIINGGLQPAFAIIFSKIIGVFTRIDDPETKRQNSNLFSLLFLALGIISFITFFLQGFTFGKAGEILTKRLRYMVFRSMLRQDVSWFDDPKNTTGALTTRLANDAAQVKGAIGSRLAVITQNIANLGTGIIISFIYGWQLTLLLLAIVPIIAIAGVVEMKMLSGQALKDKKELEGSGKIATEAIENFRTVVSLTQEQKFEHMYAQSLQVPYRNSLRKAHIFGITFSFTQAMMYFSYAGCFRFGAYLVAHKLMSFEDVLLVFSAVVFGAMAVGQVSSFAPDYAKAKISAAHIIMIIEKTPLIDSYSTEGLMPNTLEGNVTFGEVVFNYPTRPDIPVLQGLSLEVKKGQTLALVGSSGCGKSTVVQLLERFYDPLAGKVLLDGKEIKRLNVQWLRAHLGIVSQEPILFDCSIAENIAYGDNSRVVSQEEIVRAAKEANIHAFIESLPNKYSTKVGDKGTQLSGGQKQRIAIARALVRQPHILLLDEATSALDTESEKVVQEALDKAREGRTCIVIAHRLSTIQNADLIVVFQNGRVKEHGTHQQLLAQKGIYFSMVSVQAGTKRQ
UniProt Q9UNQ0: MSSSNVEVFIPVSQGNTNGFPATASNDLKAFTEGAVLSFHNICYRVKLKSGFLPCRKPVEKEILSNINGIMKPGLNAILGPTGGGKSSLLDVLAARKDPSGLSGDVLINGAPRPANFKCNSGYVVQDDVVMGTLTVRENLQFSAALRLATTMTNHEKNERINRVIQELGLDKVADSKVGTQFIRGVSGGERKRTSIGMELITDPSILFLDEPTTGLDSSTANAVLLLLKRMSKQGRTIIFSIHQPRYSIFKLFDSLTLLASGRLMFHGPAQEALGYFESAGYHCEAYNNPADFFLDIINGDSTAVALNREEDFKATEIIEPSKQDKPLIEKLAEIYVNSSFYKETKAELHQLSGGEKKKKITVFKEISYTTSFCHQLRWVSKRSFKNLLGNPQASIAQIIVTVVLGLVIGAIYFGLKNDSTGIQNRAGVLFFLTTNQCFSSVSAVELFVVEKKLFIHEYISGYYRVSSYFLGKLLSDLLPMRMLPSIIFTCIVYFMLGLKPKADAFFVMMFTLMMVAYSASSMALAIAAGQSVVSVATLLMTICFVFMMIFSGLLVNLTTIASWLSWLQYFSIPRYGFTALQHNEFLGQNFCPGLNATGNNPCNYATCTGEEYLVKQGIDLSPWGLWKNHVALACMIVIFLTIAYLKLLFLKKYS
UniProt P46721: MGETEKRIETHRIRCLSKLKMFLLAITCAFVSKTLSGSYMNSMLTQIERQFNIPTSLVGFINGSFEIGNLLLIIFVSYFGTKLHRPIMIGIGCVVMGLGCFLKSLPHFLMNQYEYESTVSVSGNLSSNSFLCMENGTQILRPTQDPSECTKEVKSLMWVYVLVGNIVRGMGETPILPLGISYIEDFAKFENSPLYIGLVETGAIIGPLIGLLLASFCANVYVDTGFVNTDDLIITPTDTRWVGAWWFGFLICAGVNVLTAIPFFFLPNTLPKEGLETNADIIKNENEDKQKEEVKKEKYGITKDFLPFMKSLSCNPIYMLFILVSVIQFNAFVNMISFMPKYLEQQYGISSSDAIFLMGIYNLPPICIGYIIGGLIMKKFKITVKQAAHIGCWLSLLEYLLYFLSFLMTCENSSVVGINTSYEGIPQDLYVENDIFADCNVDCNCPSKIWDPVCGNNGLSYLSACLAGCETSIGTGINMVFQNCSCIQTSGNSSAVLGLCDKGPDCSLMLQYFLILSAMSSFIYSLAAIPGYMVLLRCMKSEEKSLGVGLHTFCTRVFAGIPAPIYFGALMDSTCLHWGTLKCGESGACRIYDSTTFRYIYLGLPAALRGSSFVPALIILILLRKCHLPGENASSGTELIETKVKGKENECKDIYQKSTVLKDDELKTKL

Experiments:
[1] = molecular target: T1, ABCB1/Pgp (Homo sapiens, UniProt P08183); assay: ABCB1-ATPase activity in Sf9 membrane vesicles; type: biochemical; conditions: Sf9/ABCB1 membranes; 50 µM verapamil as reference activator
T1 construct: made in house; host or cells: Sf9 insect cells
Procedure: ABC transporter ATPase activity was measured in Sf9 membrane vesicles containing the respective human ABC transporters. For ABCG2/BCRP, the cholesterol level in the vesicles was increased to the level of mammalian cell membranes for full activity. For ABCB1/Pgp 20 μg/150 μL and for ABCG2/BCRP 10 μg/150 μL, vesicles were incubated with 3 mM Mg-ATP for 25 min at 37 °C. The test drugs were dissolved in DMSO and 1 µL was added to the samples. The ABC transporter-related ATPase activity was determined and reference activators (50 µM verapamil for ABCB1 and 5 µM quercetin for ABCG2) served as controls.
Drug-stimulated ATPase activity of the ABCB1 transporter is a well-documented functional assay employed to estimate the substrate or inhibitory features of various drugs. […] In this assay, most transported substrates show a biphasic curve: Low concentrations stimulate, while higher concentrations inhibit, the ATPase activity. In these experiments, we measured the vanadate-sensitive (ABC transporter-related) ABCB1-ATPase activity in membrane vesicles isolated from ABCB1 overexpressing Sf9 cells.

[2] = molecular target: T2, wild-type ABCG2 (Homo sapiens, UniProt Q9UNQ0); assay: Hoechst 33342 dye extrusion in HeLa cells expressing wild-type ABCG2; type: cell-based; conditions: wild-type ABCG2, 0.2 µM Hoechst 33342, full inhibition by 1 µM Ko143
T2 construct: expressed in transfected cells; host or cells: HeLa (Sleeping Beauty transposon system)

[3] = molecular target: OATP1A2 (Homo sapiens, UniProt P46721); conditions: read-out: Estimated Transporter Inhibition IC50, OATP1A2 cellular assay; 0.5 µM sulforhodamine 101 uptake, 10 min, pH 7.0, A431-OATP1A2 cells; '-' = no inhibition
[4] = molecular target: ABCG2/BCRP (Homo sapiens, UniProt Q9UNQ0); assay: ABCG2-ATPase activity in Sf9 membrane vesicles; type: biochemical; design: expressed in transfected cells; host or cells: PLB-985; conditions: Sf9/ABCG2 membranes; ivermectin, ritonavir, lopinavir at low micromolar, remdesivir at higher concentrations

ivermectin
Effect on ABCB1-ATPase activity (in words) [1]: only showed ABCB1-ATPase inhibition
Effect on Hst dye extrusion by ABCG2 in HeLa cells (in words) [2]: inhibited
IC50 [3]: 5.2 µM
Effect on baseline ABCG2-ATPase activity (in words) [4]: significantly inhibited
